Measured affinities in a library of Ab-14 light chain variants

Data: MIT Lincoln Laboratory AlphaSeq set, Engelhart et al. 2022, doi:10.1038/s41597-022-01779-4, as distributed in FLAb.

Binding partner: SARS-CoV-2 spike HR2 peptide, sequence PDVDLGDISGINAS.

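The starting antibody came from a phage panning campaign against this peptide. The library (AAYL50) carries one to three amino acid substitutions per variant, with no insertions or deletions. Affinity was read by AlphaSeq, a pooled yeast mating assay with surface-displayed partners. Mating (16 h, 30 °C) was followed by selection of diploids and sequencing of their barcodes. Each replicate has its own calibration line, from reference interactions of the BCL2 family. Mating was done three times.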

Parent: Ab-14, a human scFv built as VH, the linker GGGGSGGGGSGGGGS, VL. Only the CDRs of the light chain vary.
VH: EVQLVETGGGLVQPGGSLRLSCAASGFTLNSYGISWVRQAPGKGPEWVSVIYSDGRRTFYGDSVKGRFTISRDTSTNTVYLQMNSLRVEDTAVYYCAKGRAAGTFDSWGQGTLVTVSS
VL: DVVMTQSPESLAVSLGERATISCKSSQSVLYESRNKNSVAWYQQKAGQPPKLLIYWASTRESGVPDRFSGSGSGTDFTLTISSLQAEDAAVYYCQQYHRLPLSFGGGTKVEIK

Variants are written as CDR1, CDR2 and CDR3 of the light chain (limits as in the source). Parent: KSSQSVLYESRNKNSVA, WASTRES, QQYHRLPLS. Values are log10 of the apparent Kd in nM; lower means stronger binding. Replicates are averaged; those with no signal do not enter the mean. "nd" means that the variant was in the library but no mating with the target was seen in any replicate; the authors take this as a sign of poor binding, and no number exists. Background: pairings of library AAYL50 with three empty control strains gave a value in 18% of cases (median 4.19, 5th percentile 2.99). Values in that range, when seen in few replicates, are hard to tell from nonspecific mating. For reference, the parent read 0.65 as the reference entry and 1.68 as a member of this library.

Result nd (0 of 3 replicates), variant KSSQSVLYESRNKNSVL | WATTRES | QQRHRLPLS.
Result nd (0 of 3 replicates), variant KSSQSVLYESRNKNAVG | WASTRES | CQYHRLPLS.
Result 0.88 (3 of 3 replicates), variant KSSQSVLYESRNKNSVA | WASTRES | QQYEWLPLC.
Result 0.74 (3 of 3 replicates), variant KSPQSVLGESMNKNSVA | WASTRES | QQYHRLPLS.
Result 1.24 (3 of 3 replicates), variant QSSQSVFYESRNNNSVA | WASTRES | QQYHRLPLS.
Result 0.79 (3 of 3 replicates), variant KSSQNVLYESRNSNSVA | WASTRFS | QQYHRLPLS.
Result 0.03 (3 of 3 replicates), variant KSSQSVLYESRNKNSVA | WASIRED | QQYHRLPLS.
Result 4.91 (2 of 3 replicates), variant KSSQSVLYESRNKNSVR | WCSTRHS | QQYHRLPLS.
Result 2.08 (3 of 3 replicates), variant KSSVSVLYESRNNCSVA | WASTRES | QQYHRLPLS.
Result 2.11 (3 of 3 replicates), variant KSSQSVLYESCNKNDVA | WASTREA | QQYHRLPLS.
Result 0.37 (3 of 3 replicates), variant RSSQSVFYESRNANSVA | WASTRES | QQYHRLPLS.
Result 1.30 (3 of 3 replicates), variant KSSQSVLYESRNKNSVA | WASTRES | GQRHRDPLS.
Result 5.46 (1 of 3 replicates), variant KSSQSVAYESCNKNSVA | WRSTRES | QQYHRLPLS.
Result 4.42 (1 of 3 replicates), variant KSSQSVLYESRNKNSVA | WASSRRS | QCYHRLPLS.
Result 1.28 (3 of 3 replicates), variant KSSQSVLYESRNKNSVA | WASWRES | QQYHYLRLS.
Result 2.62 (2 of 3 replicates), variant KSSQSVVYESRNKNAVA | WASTRES | QQHHRLPLS.
Result 0.71 (3 of 3 replicates), variant KSSQSGLYESRNKNSVA | WASTRES | MQYHRLPTS.
Result nd (0 of 3 replicates), variant KSSQSVLYESRFKNSYA | DASTRES | QQYHRLPLS.
Result 1.35 (3 of 3 replicates), variant KSSQDVLQESRNKNSVA | WASTRES | QQYHTLPLS.
Result 3.69 (1 of 3 replicates), variant RSSQSVLYESRNKNSVA | TASTMES | QQYHRLPLS.
Result 0.78 (3 of 3 replicates), variant KSSQSVFYESRNEYSVA | WASTRES | QQYHRLPLS.
Result 4.67 (3 of 3 replicates), variant KSSMSVLWESRNKNSVA | WASTRES | QQYHRLQLS.
Result 4.06 (1 of 3 replicates), variant KSSQSVEYESRHKNSEA | WASTRES | QQYHRLPLS.
Result nd (0 of 3 replicates), variant KESQSVLYESENKNSVA | WASTRES | QQAHRLPLS.
Result nd (0 of 3 replicates), variant KSSQSVLYESRNKNSRA | WASTREC | QQYHRLPLS.
Result nd (0 of 3 replicates), variant KSSQSVLYESRNKNSSA | WSSTRES | QQYHRLDLS.
Result nd (0 of 3 replicates), variant DSSQSVLYESRNKNSVA | WASTSES | QQYHRLPLS.
Result 2.76 (1 of 3 replicates), variant KSSQSVLYESRNKNSVA | WASTRES | QQYHRLMLH.
Result nd (0 of 3 replicates), variant KSSQSVILESRNKNSVA | WASTRES | QQYCRLPLS.
Result nd (0 of 3 replicates), variant KSSQSVYYESRNKNSVA | WASTRES | QWSHRLPLS.
Result 2.70 (1 of 3 replicates), variant KHSQSVLYESRNKNSVA | WASSRES | QQYHRLPIS.
Result 0.76 (3 of 3 replicates), variant KSSQSVLYDSRNKNSVA | TASTRES | QQYDRLPLS.
Result 2.38 (3 of 3 replicates), variant ESSQSVLYESVNKNSVA | CASTRES | QQYHRLPLS.
Result 0.35 (3 of 3 replicates), variant KSSQSVLYEMRNKNQVA | WASTRES | QQYNRLPLS.
Result 2.61 (1 of 3 replicates), variant WSNQSVLYESRNKNSVA | WASTRES | CQYHRLPLS.
Result 3.48 (1 of 3 replicates), variant KSSQSVLYESRNKNSEA | WAQTRES | QQYHRLPHS.
Result 4.13 (1 of 3 replicates), variant KRSQSVKYESRNKNSVA | WASTRES | QQLHRLPLS.
Result nd (0 of 3 replicates), variant KSSQSVLYNSRNKNSVA | WAATRES | QMYHRLPLS.
Result 3.50 (3 of 3 replicates), variant KASQSVLYWSRNKNSVA | WASTMES | QQYHRLPLS.
Result 0.99 (3 of 3 replicates), variant KSSQSVLYEDRNKNQVA | WASTRES | QQYHRFPLS.
Result 4.49 (1 of 3 replicates), variant KSSQSVLYESRNKWCVA | WASTRES | QQRHRLPLS.
Result 0.91 (3 of 3 replicates), variant KSSQWVLYESRNKNSVA | MASTRES | QQYHRFPLS.
Result nd (0 of 3 replicates), variant KSSQSVHYESRNKNSVL | WASTRES | QQYGRLPLS.

The closing 6 entries, repeated:

CDR-L1,CDR-L2,CDR-L3,mean log10 Kd (nM),replicates with signal
KSSQSVLYNSRNKNSVA,WAATRES,QMYHRLPLS,nd,0/3
KASQSVLYWSRNKNSVA,WASTMES,QQYHRLPLS,3.50,3/3
KSSQSVLYEDRNKNQVA,WASTRES,QQYHRFPLS,0.99,3/3
KSSQSVLYESRNKWCVA,WASTRES,QQRHRLPLS,4.49,1/3
KSSQWVLYESRNKNSVA,MASTRES,QQYHRFPLS,0.91,3/3
KSSQSVHYESRNKNSVL,WASTRES,QQYGRLPLS,nd,0/3